In PubChem BioAssay AID1490 (National Center for Advancing Translational Sciences (NCATS), 2009):
“And” between values parts separate entries of the source, which are not always exact repeats. Equal values may be shown once. Only a part is listed here, and it is no random draw. Records with an inconclusive call do not appear. The source made the active and inactive calls. The call rests on the fitted dose curve; in most records, active means well fitted inhibition curve with a large enough effect; inconclusive means small, poorly fitted or top-dose-only effect, or another doubt; inactive means no such curve, though single readings can be large or run the other way.

molecular target: 4'-phosphopantetheinyl transferase ffp (Bacillus subtilis) (UniProt Q9F4F7); test: qHTS Assay for Inhibitors of Bacillus subtilis Sfp phosphopantetheinyl transferase (PPTase); conditions: Biochemical Sfp PPTase activity;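 further: the enzyme is Sfp with the accession as filed and its product quenches rhodamine fluorescence; 0% = enzyme reaction without inhibitor and -100% = no enzyme wells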

Compound	largest response in the series, negative = inhibition
COc1cc(I)ccc1[As](=O)(O)O	inactive: -13.1%
Cc1c2c(nc3ccccc13)SC(C(Cl)Cl)C2 (centres undefined)	inactive: -12.8%
Cc1cc(=O)[nH]c(N[N+](=O)[O-])n1	inactive: 5.12%
CCN(CC)CCCOC(=O)C(O)(c1ccccc1)c1ccccc1	inactive: 10.4%
O=C(OC1CN2CCC1CC2)C12CC3CC(CC(C3)C1)C2 (centres undefined)	inactive: -11%
COc1ccc(N/C(=N/P(=O)(N2CCOCC2)N2CCOCC2)N2CCOCC2)cc1	inactive: 24.9%
Cc1ccc(OP(=O)(Nc2ccc([N+](=O)[O-])cn2)Oc2ccc(C)cc2)cc1	inactive: 7.32%
Cc1ccc2nc3c(c(C)c2c1)CC(C(Cl)Cl)S3 (centres undefined)	inactive: -5.37%
C[As](=O)(O)c1cccc(C(=O)O)c1	inactive: -9.03%
O=[As](O)(c1ccc(O)cc1)c1ccccc1O	inactive: 24.1%
CC(C)NC(=O)NP(=O)(Oc1ccccc1)Oc1ccccc1	inactive: 2.71%
CCN(CC)C(=S)SC(NC=O)C(Cl)(Cl)Cl (centres undefined)	inactive: 4.06%
ClCCSc1nnc(-c2cccnc2)o1	inactive: -1.64%
CC(C)c1ccc(OP(=O)(Nc2ccccn2)Oc2ccccc2F)cc1 (centres undefined)	inactive: 22.5%
CCCCOc1ccc(C(=O)NCC2(N3CCCCC3)CCCCC2)cc1OC	inactive: 18.3%
O=P(Nc1ccccn1)(c1cccc2ccccc12)c1cccc2ccccc12	inactive: -10.5%
O=[N+]([O-])c1ccc(Nc2ccc(Oc3ccc([N+](=O)[O-])cc3[N+](=O)[O-])cc2)c([N+](=O)[O-])c1	inactive: 10%
CCOC(=O)Nc1cccc([As](=O)(O)O)c1	inactive: 3.49%
O=C(Nc1ccncc1[N+](=O)[O-])c1ccc([N+](=O)[O-])cc1[N+](=O)[O-]	inactive: 6.05%
O=C(COc1ccccc1)OC1CN2CCC1CC2 (centres undefined)	inactive: 13.2%
COP1(=S)c2c(C)nn(CCC#N)c2N=C(c2ccc(F)cc2)N1C (centres undefined)	inactive: -4.55%
CCC(C)N(CC(C)C)C(=S)SC(NC(C)=O)C(Cl)(Cl)Cl (centres undefined)	inactive: -16.8%
O=C(OC1CN2CCC1CC2)c1cccc([N+](=O)[O-])c1 (centres undefined)	inactive: -1.95%
CCOC(=O)c1ccc(NC(=O)C(C)(CCl)SC)cc1 (centres undefined)	inactive: 2.21%
CCOP(=O)(NC(=NC(C)c1ccccc1)NC(C)c1ccccc1)OCC (centres undefined)	inactive: 10.7%

Compound	largest response in the series, negative = inhibition
O=P1(Nc2ccccn2)COc2ccccc2OC1	inactive: -1.96%
CCC1=CC2Cc3nc4ccc(Cl)cc4c(N)c3C(C1)C2 (centres undefined)	inactive: 5.38%
CCOP(=O)(Nc1ccc(C)cn1)OCC	inactive: 14%
CN(CCCl)Cc1cc(Cl)c(NC2=NCCN2)c(Cl)c1	inactive: -19.5%
CC(C)/C=N\N=C(\N)N[N+](=O)[O-]	inactive: 9.01%
CN(C(=O)Cc1ccc(Cl)c(Cl)c1)[C@@H]1CCCC[C@H]1N1CCCC1	inactive: 13.2% and inactive: 4.48%
O=[As](O)(c1ccccc1Br)c1ccccc1Br	inactive: 14.8%
CN(C)C1(CNC(=O)c2ccc(S(C)(=O)=O)cc2)CCCCC1	inactive: 6.75%
O=C(/C=C/c1ccccc1)OC1CN2CCC1CC2 (centres undefined)	inactive: -9.74%
CC1CCC(C(C)C)C(OP(=O)(Nc2ccccn2)c2ccccc2)C1 (centres undefined)	inactive: 9.51%
Cc1ccc(C(=O)OC2CN3CCC2CC3)cc1 (centres undefined)	inactive: 14.6%
Cc1nn(-c2ccccc2)c2c1P(=O)(N1CCOCC1)N(C)C(c1ccccc1)=N2 (centres undefined)	inactive: 19.2%
COc1cc(C2NCCC3(OCCO3)C2(C)C)cc(OC)c1OC.O=[N+]([O-])c1cc([N+](=O)[O-])c(O)c([N+](=O)[O-])c1 (centres undefined)	inactive: 5.85%
Nc1cccc([As](=O)(O)c2ccccc2)c1	inactive: 4.2%
Cc1ccc(OCC(=O)OC2CN3CCC2CC3)cc1 (centres undefined)	inactive: 3.43%
O=[As](O)(c1cccs1)c1cccs1	inactive: 5.01%
O=P1(Nc2ccc(Br)cn2)COc2ccccc2OC1	inactive: 10.8%
CN1CCCCC1COC(=O)C1(O)c2ccccc2CCc2ccccc21 (centres undefined)	inactive: 1.64%
O=P1(Nc2ncccn2)COc2ccccc2OC1	inactive: -3.58%
Nc1ccccc1[As](=O)(O)c1ccccc1	inactive: 27.4%
O=P(Nc1nccs1)(Oc1ccccc1)Oc1ccccc1	inactive: -8.34%
O=P(Nc1nccs1)(c1ccccc1)c1nc2ccccc2s1 (centres undefined)	inactive: -89.1%
CCOP1(=S)c2c(C)nn(CCC#N)c2N=C(c2ccccc2F)N1C (centres undefined)	inactive: 12.9%
CN(C(=O)Cc1ccccc1)[C@@H]1CC[C@]2(CCCO2)C[C@H]1N1CCCC1	inactive: 4.35%
CCOP1(=S)c2c(C)nn(CCC#N)c2N=C(c2ccc(F)cc2)N1C (centres undefined)	inactive: -9.06%

Compound	largest response in the series, negative = inhibition
O=[N+]([O-])c1ccc2c(c1)nnn2O	inactive: 13.2%
NC(=O)Nc1ccc([As](=O)(O)O)cc1	inactive: 10.2% and inactive: 14.5% and inactive: 11.3%
Cc1cccc(OCC(=O)OC2CN3CCC2CC3)c1 (centres undefined)	inactive: 0.584%
O=[As](O)(c1cccc(O)c1)c1cccc(O)c1	inactive: 29.3%
CN(C(=O)Cc1ccc(Cl)c(Cl)c1)[C@@H]1CC[C@]2(CCCO2)C[C@H]1N1CCCC1	inactive: -25.1%
O=C(OC1CN2CCC1CC2)c1ccc(Cl)cc1 (centres undefined)	inactive: 17.6%
CS(=O)(=O)c1ccc(Cl)c(NC(=O)COC(=O)C(O)(c2ccccc2)c2ccccc2)c1	inactive: 9.27%
O=[As](O)(O)c1cccnc1	inactive: 7.01%
COc1cc(C(=O)NCC2(N3CCOCC3)CCCCC2)cc(Cl)c1OC(C)C	inactive: 3.58%
CCOP(=O)(Nc1cccc2ccccc12)OCC	inactive: 3.66%
Cc1ccc(NCCc2c([N+](=O)[O-])cc([N+](=O)[O-])cc2[N+](=O)[O-])cc1	inactive: -12.1%
Nc1cccc2c([As](=O)(O)O)cccc12	inactive: -16.6%
CCCOP(=S)(Nc1nc(N)cc(=O)[nH]1)OCCC	inactive: -1.94%
CC(C)(C)C(=O)NC(Sc1ccccc1)C(Cl)(Cl)Cl (centres undefined)	inactive: 12.5%
O=P1(Nc2nc3ccc(Cl)cc3s2)COc2ccccc2O1 (centres undefined)	inactive: 4.81%
CC(=O)Nc1ccc([As](=O)(O)O)c(O)c1	inactive: 1.76%
C[C@H]1OP(=O)(Oc2ccccc2)C[C@@H]2O[C@@H]21 (some centres undefined)	inactive: 6.68%
C[C@@H]1C=CCP(=O)(Oc2ccccc2)O1 (some centres undefined)	inactive: 8.64%
O=C(OCCN1CCN(CCOCc2ccccc2)CC1)C(O)(c1ccccc1)c1ccccc1	inactive: 8.9%
CC(=O)c1ccc(N2CC2c2ccncc2)cc1 (centres undefined)	inactive: 8.42%
Cc1ccc(NP(=O)(Oc2cccc(C)c2)Oc2cccc(C)c2)nc1	inactive: 12.5%
CCOC(=O)NC(Sc1ccccc1)C(Cl)(Cl)Cl (centres undefined)	inactive: 20.1%
c1ccc(-c2nn[nH]n2)c(-c2nn[nH]n2)c1	inactive: 0.305%
O=C(NC1CCS(=O)(=O)C1)NP(=S)(Oc1ccccc1)Oc1ccccc1 (centres undefined)	inactive: 6.42%
O=c1c2cc([N+](=O)[O-])ccc2[nH]c2c([N+](=O)[O-])cc([N+](=O)[O-])cc12	inactive: 8.43%

Compound	largest response in the series, negative = inhibition
CN(C)C(=O)Oc1noc2ccccc12	inactive: 7.57%
Cc1ccccc1OP(=O)(Nc1ccccn1)Oc1ccccc1C	inactive: 4.7%
CCN(CC)CCCOC(=O)C(O)(c1ccccc1)C1CCCCC1 (centres undefined)	inactive: 18.1%
CCC(=O)N1C2C3N(C(=O)CC)C1C1N(C(=O)CC)C(C(N1C(=O)CC)N3C(=O)CC)N2C(=O)CC	inactive: 12.9%
O=C(OC1CN2CCC1CC2)c1ccccc1 (centres undefined)	inactive: 6.76% and inactive: 4.47%
CC(=O)NC(SC(=S)N(CC(C)C)CC(C)C)C(Cl)(Cl)Cl (centres undefined)	inactive: 8.44%
Cc1ccc(OP(=O)(Nc2ccccn2)Oc2ccc(C)cc2)cc1	inactive: 4.67%
COC(=O)c1cc2c(s1)N=C(c1ccccc1)N(C)P2(=O)N1CCOCC1 (centres undefined)	inactive: 21.5%
CN(C(=O)Cc1ccccc1)[C@H]1CC[C@@]2(CCCO2)C[C@@H]1N1CCCC1	inactive: -4.78%
C[C@H]1OP(=O)(Oc2ccccc2)[C@H](O)[C@H](O)[C@H]1N=[N+]=[N-] (some centres undefined)	inactive: 9.67%
CN(C)CCOC(=O)C(O)(c1ccccc1)C1CCCCC1 (centres undefined)	inactive: 15.3%
O=P(Nc1nc2ccccc2s1)(c1ccccc1)c1ccccc1	inactive: -3%
O=P(Nc1ccccn1)(c1ccc(Br)cc1)c1ccc(Br)cc1	inactive: -11%
CN(C)C1(CNC(=O)c2ccc(Cl)c(S(N)(=O)=O)c2)CCCCC1	inactive: 11.3%
O=C(OC1CN2CCC1CC2)c1cccc(Cl)c1 (centres undefined)	inactive: 4.51%
C(Cc1nn[nH]n1)Cc1nn[nH]n1	inactive: -94.3%
Nc1ccc([As](=O)(O)c2ccc([N+](=O)[O-])cc2)cc1	inactive: 10.2%
O=[As](O)(c1ccccc1)c1ccc(O)cc1	inactive: 20.5%
O=[N+]([O-])c1ccc(O)c(/C=N/Nc2ccc([N+](=O)[O-])cc2[N+](=O)[O-])c1	inactive: -15.2%
CC(=O)NC(SC(=S)N(C)C)C(Cl)(Cl)Cl (centres undefined)	inactive: -3.44%
O=[N+]([O-])c1ccc(OP2(=O)COCCO2)cc1 (centres undefined)	inactive: 6.78%
O=[N+]([O-])c1ncn(CCn2cnc([N+](=O)[O-])n2)n1	inactive: 4.01%
c1nnnn1CCn1cnnn1	inactive: 11.1%
CCC(C)(OOC(C)(C)C)OOC(C)(C)C	inactive: 1.37%
